Source: patent US7119105B2, “Methods for treating neurodegenerative disorders using aspartyl protease inhibitors” (The Regents of the University of California, priority 1997, dated 2006)

Amino acid sequences for entries named in this document (tags omitted). Residues count along the entry.
UniProt P07339, 65-412 limits assumed: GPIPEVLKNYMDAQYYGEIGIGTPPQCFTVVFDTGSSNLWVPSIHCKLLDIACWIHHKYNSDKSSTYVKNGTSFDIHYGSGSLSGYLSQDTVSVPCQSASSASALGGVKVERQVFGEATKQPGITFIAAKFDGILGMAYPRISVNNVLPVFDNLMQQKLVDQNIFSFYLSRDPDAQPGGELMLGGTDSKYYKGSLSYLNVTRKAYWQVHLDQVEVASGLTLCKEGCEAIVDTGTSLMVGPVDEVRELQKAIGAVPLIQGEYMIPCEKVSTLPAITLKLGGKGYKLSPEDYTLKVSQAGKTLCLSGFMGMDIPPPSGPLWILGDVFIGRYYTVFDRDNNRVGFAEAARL

Molecular target: cathepsin D (Homo sapiens, UniProt P07339)
Assay: Cathepsin D cuvette assay for IC50 and inhibition constants (Ki)
Type: biochemical
Settings: for Ki: Table IV, substrate 2.5 μM, cathepsin D 10 nM, Ki ≈ IC50 − Et/2
Excerpt: Compounds capable of inhibiting cathepsin D can readily be identified using the assays described herein which measure a change in the hydrolysis of a peptide substrate. More particularly, a fluorometric high through-put assay for activity toward human liver cathepsin D (Calbiochem) can be used to screen the compounds of the present invention for their ability to inhibit cathepsin D. This assay was previously described by G. A. Kraft, et al., Methods Enzymol. 241, 70-86 (1994), the teachings of which are incorporated herein by reference. […] T. Baldwin, et al., Proc. Natl. Acad. […] Generally, the reactants are mixed, the reaction is allowed to proceed for a specific period of time and the fluorescence of the reaction products is monitored to determine the extent to which the peptide substrate has been cleaved. […] 241, 70-86 (1994). As such, following the methods of the present invention, compounds can be readily synthesized and screened to identify compounds that inhibit cathepsin D. [table]

Row | Ki | IC50 (Table V second generation, conditions as Table IV) | SMILES
1 | 356 nM |  | COc1cccc(CCN(C[C@H](O)[C@H](Cc2ccccc2)NC(=O)CN2C(=O)CSC2=S)C(=O)NC2CCCCC2)c1
2 | 595 nM |  | CCCCCCC(=O)N(CCc1cccc(OC)c1)C[C@H](O)[C@H](Cc1ccccc1)NC(=O)CN1C(=O)CSC1=S
3 | > 5000 nM |  | O=C(COc1cc(Cl)c(Cl)cc1Cl)N[C@@H](Cc1ccccc1)[C@H](O)CN(CCc1ccc2c(c1)OCO2)C(=O)CCN1C(=O)c2ccccc2C1=O
4 |  | > 5000 nM | O=C(COc1ccc(Cl)c(Cl)c1)N[C@@H](Cc1ccccc1)[C@H](O)CN(CCc1ccc2c(c1)OCO2)C(=O)CCN1C(=O)c2ccccc2C1=O
